# Antibody variant affinities, Ab-14 heavy chain, assay B

All variants were tested on one target, the spike HR2 peptide PDVDLGDISGINAS (SARS-CoV-2).

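The parent was found by panning a naive human phage display library on the peptide. These sequences belong to a second round, designed from the earlier measurements on random variants of the parent. Their group label is 14H_En_Gen (En: ensemble of fine-tuned language models; Gen: genetic algorithm). The scFvs were displayed on barcoded MATa yeast, the peptide on MATalpha yeast. Pairs that bind mate more often; barcode pairs of the diploids are counted by sequencing. A regression on co-assayed BCL2-family reference pairs converts the normalised counts of each replicate to an apparent Kd. Mating was done six times.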

The variants keep the light chain, the linker and the frameworks of Ab-14 (scFv order VH, a (GGGGS)3 linker, VL).
VH: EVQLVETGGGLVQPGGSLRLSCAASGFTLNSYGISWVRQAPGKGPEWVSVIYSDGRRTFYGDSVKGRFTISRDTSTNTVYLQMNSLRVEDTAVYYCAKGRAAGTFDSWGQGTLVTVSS
VL: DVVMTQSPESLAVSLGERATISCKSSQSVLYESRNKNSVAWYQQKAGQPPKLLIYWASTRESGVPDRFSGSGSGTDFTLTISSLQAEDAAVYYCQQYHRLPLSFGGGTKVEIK

Variants are written as CDR1, CDR2 and CDR3 of the heavy chain (limits as in the source). Parent: GFTLNSYGIS, VIYSDGRRTFYGDSVK, GRAAGTFDS. Scale: log10 of Kd in nM, estimated from mating counts; low values are strong binders. Where no diploid with the target was found in that replicate, the entry reads "ND": below detection, most likely a poor binder, though not proof of it. Values of this round are not directly comparable with the first-round values of the same sequences. Nonspecific signal, from three strains lacking the peptide, appeared in 1% of pairings of all heavy chain designs, centred on 2.08 (5% of these signals below 0.84); values are not corrected for it. The control count says in how many pairings with the empty strains this scFv gave a signal, with their mean in brackets. The authors' rule: three or more of the six replicates give a measured affinity, fewer mean a poor binder.

CDR-H1,CDR-H2,CDR-H3,"replicates, log10 nM",control signals
GFDLNEYGIS,VIYADGMRTAYTDSVK,GNHAGTFDV,-0.55 / -0.46 / -0.87 / -0.69 / -1.17 / -0.27,0/18
GFDLNEYGIS,VIYADGQRTAYADDVK,GSNAGTFDV,-0.34 / -0.29 / -0.62 / -0.44 / -0.56 / -0.48,0/18
GFDLDEYGIS,VIYADGMRTFYADSVK,GENAGTFDL,-0.50 / -0.65 / -0.96 / -0.83 / -0.90 / -0.53,1/18 (3.14)
GFDLNEYGIS,VIYADGVRTAYADSVK,GGNAGTFDQ,-0.22 / -0.08 / -0.28 / -0.11 / -0.25 / -0.24,0/18
GFDLNEYGIS,VIYADGMRTFYADDVK,GENAGTFDV,0.10 / 0.06 / -0.25 / 0.02 / -0.34 / 0.20,0/18
GFNLDEYGIS,VIYADGKRTAYADSVK,GQVAGTFDV,-0.53 / -0.57 / -0.64 / -0.62 / -0.54 / -0.35,1/18 (2.26)
GFDLDEYGIS,VIYADGMRTAYADSVK,GQNAGTFDM,0.23 / -0.35 / -0.13 / -0.04 / 0.05 / 0.18,0/18
GFDLNEYGIS,VIYADGVRTVYADSVK,GTNAGTFDV,-0.76 / -0.40 / -0.65 / -0.88 / -0.45 / -0.15,0/18
GFDLNEYGIS,VIYADGRRQAYADSVK,GNVAGTFDV,-0.44 / -0.54 / -0.50 / -0.67 / -0.41 / -0.38,1/18 (1.08)
GFDLNEYGIS,VIYADGKRTAYSDSVK,GGVAGTFDV,-0.20 / -0.25 / -0.69 / -0.69 / -0.94 / -0.29,0/18
GFDLNEYGIS,VIYADGMRTAYADNVK,GNTAGTFDI,-0.05 / 0.23 / -0.50 / 0.07 / -0.10 / -0.13,0/18
GFDLNEYGIS,VIYADGKRTYYADSVK,GNVAGTFDI,-1.09 / -0.45 / -0.28 / -0.56 / -0.76 / -0.20,0/18
GFDLNEYGIS,VIYADGMRQAYADDVK,GNVAGTFDV,0.02 / -0.39 / 0.10 / -0.17 / -0.32 / -0.34,0/18
GFDLNEYGIS,VIYADGMRKAYSDSVK,GNNAGTFDV,-0.45 / -0.19 / -0.64 / -0.97 / -0.81 / -0.84,0/18
GFDLNEYGIS,VIYADGMRTAYADSVK,GEVAGTFDT,0.30 / 0.05 / -0.36 / -1.25 / -0.02 / 0.25,0/18
GFDLNEYGIS,VIYADGQRTAYADTVK,GENAGTFDV,0.19 / -0.11 / -0.26 / -0.70 / -1.14 / 0.12,0/18
GFDLDEYGIS,VIYADGMRTQYADSVK,GENAGTFDV,-0.45 / 0.66 / ND / 0.42 / ND / 0.48,0/18
GFDLDEYGIS,VIYADGTRTAYADSVK,GNVAGTFDL,0.39 / -0.47 / -0.38 / -0.04 / -0.33 / 0.09,1/18 (1.20)
GFDINEYGIS,VIYADGMRTAYADSVK,GNQAGTFDV,-0.35 / -0.15 / -0.28 / -0.23 / -0.12 / -0.11,0/18
GFDLDEYGIS,VIYADGKRTAYADDVK,GEVAGTFDI,-0.20 / -0.14 / -0.02 / -0.47 / -0.28 / 0.03,0/18
GFDLNEYGIS,VIYADGMRTAYADDVK,GNQAGTFDL,1.08 / 0.66 / 0.19 / 0.81 / 0.75 / 1.01,0/18
GFDLDEYGIS,VIYADGRRTAYADSVK,GNNAGTFDV,0.44 / -0.30 / 0.73 / -0.07 / -0.26 / -0.08,0/18
GFDLNEYGIS,VIYADGMRTYYSDSVK,GNVAGTFDQ,0.36 / -0.62 / 0.26 / -0.72 / -0.85 / -0.42,0/18
GFDLDEYGIS,VIYADGMRTAYADNVK,GTNAGTFDV,-0.23 / 0.08 / -0.21 / -1.03 / 0.12 / -0.88,0/18
GFDLDEYGIS,VIYADGKRTAYADSVK,GQNAGTFDM,0.37 / -0.18 / -0.08 / -0.32 / -0.14 / -0.16,1/18 (2.51)
GFDLNEYGIS,VIYADGMRTYYADSVK,GNVAGTFDI,-0.48 / -0.57 / -0.54 / -0.75 / -0.62 / -0.36,2/18 (1.73)
GFDLNEYGIS,VIYADGMRTAYADSVK,GANAGTFDT,-0.13 / -0.24 / -0.42 / -0.30 / -0.15 / -0.13,0/18
GFDLDEYGIS,VIYADGKRTFYADSVK,GNVAGTFDQ,-0.51 / -0.58 / -0.68 / -0.83 / -0.67 / -0.80,1/18 (3.06)
GFDLDEYGIS,VIYADGMRTFYADSVK,GNVAGTFDI,-1.27 / -1.62 / -1.47 / -1.89 / -1.26 / -0.63,0/18
GFDLNEYGIS,VIYADGMRTAYQDSVK,GNQAGTFDV,0.19 / 0.01 / -0.28 / -0.24 / -0.22 / 0.29,1/18 (2.64)
GFDLNEYGIS,VIYADGKRTVYADSVK,GEVAGTFDV,-0.13 / -0.87 / -0.35 / -0.76 / -0.32 / -0.48,0/18
GFDLNEYGIS,VIYADGRRTAYADSVK,GENAGTFDT,-0.57 / -0.19 / -0.18 / -0.67 / -0.38 / -0.04,0/18
GFDLNEYGIS,VIYADGVRTAYVDSVK,GNQAGTFDV,-0.29 / -0.33 / -0.56 / -0.78 / -0.68 / -0.31,0/18
GFDLNEYGIS,VIYADGSRTFYADSVK,GENAGTFDI,-0.40 / -0.77 / -0.80 / -0.97 / -0.83 / -0.69,0/18

Extract of 5 entries:

CDR-H1,CDR-H2,CDR-H3,"replicates, log10 nM",control signals
GFDLDEYGIS,VIYADGKRTFYADSVK,GNVAGTFDQ,-0.51 / -0.58 / -0.68 / -0.83 / -0.67 / -0.80,1/18 (3.06)
GFDLDEYGIS,VIYADGKRTAYADSVK,GQNAGTFDM,0.37 / -0.18 / -0.08 / -0.32 / -0.14 / -0.16,1/18 (2.51)
GFDLNEYGIS,VIYADGKRTVYADSVK,GEVAGTFDV,-0.13 / -0.87 / -0.35 / -0.76 / -0.32 / -0.48,0/18
GFDLDEYGIS,VIYADGTRTAYADSVK,GNVAGTFDL,0.39 / -0.47 / -0.38 / -0.04 / -0.33 / 0.09,1/18 (1.20)
GFDLNEYGIS,VIYADGVRTVYADSVK,GTNAGTFDV,-0.76 / -0.40 / -0.65 / -0.88 / -0.45 / -0.15,0/18

Values reported by Li et al. 2023, doi:10.1038/s41467-023-39022-2 (FLAb copy).